Sequences of proteins named here, by UniProt entry; tags and fusion partners are left off.
Guanine nucleotide-binding protein G(i) subunit alpha-3 (Rattus norvegicus), P08753, UniProt P08753, whole entry, looked up: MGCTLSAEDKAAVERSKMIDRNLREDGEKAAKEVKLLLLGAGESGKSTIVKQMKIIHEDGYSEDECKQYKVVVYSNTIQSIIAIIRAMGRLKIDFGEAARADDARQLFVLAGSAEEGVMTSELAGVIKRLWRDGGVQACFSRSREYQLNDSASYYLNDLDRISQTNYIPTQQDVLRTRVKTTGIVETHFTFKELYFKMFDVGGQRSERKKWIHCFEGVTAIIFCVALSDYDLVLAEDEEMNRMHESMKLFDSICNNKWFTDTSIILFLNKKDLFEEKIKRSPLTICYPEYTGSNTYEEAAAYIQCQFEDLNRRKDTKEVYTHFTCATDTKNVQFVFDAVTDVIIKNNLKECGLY

# Screens as filed in PubChem.
# In the library only some 0.46% were active in any assay of this set; here they are far more common.
# HCMV UL50-53 inh: inhibitors of HCMV UL50-UL53 interaction, biochemical, HTRF | HCMV UL50-UL53 nuclear egress complex (human cytomegalovirus) | hit rate 0.15% among 190,000 | normalized percent inhibition | inhibition, % (no concentration beside the values) | AID 1918969, 2023; in the data active means inhibition above about 27%, passing the limit was not always enough
# GIV-Gai inh: inhibitors of GIV peptide binding to Galpha-i3, primary screen, biochemical, fluorescence polarization, FITC-GIV GBA peptide, rat Galphai3 | 90 min; stronger effect = lower value; scaled: aluminum fluoride 0%, vehicle 100% | AID 1224905, 2016 | 210,000 compounds, 0.42% hits | percent of control (FP), % (concentration not given with the values) | Guanine nucleotide-binding protein G(i) subunit alpha-3 (Rattus norvegicus), P08753;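 active = replicate mean at 85% of control or lower, very high polarization wells dropped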;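 note: wells of about 15 µL received 100 nL stock; the first replicate is given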
# The depositor's hits bear a star; / = not tested or not shown; ! = not active in a repeat.
nr	molecule	HCMV UL50-53 inh	GIV-Gai inh
1	CN(C)c1ccc(N=Cc2nc(-c3ccccc3)oc2O)cc1	/	-24*
2	CN(C)c1ccc(N=Cc2nc(-c3ccccc3)oc2OC(=O)c2ccccc2)cc1	-30	/
3	COc1ccc(CNc2ncc3c(n2)CC(c2ccccc2)CC3=O)cc1 (centres undefined)	-12	102
4	O=C(Nc1ccc2snnc2c1)NC1CC1	48*	104
5	CNC(=O)Nc1ccc2snnc2c1	/	102
6	Cc1ccc(C(=O)N2C(=Nc3cccc(C(F)(F)F)c3)SCC2(C)C)o1	0	/
7	O=CN(/C=C1\Sc2ccccc2C1=O)c1cccc2ccccc12	-34	-0.2*
8	CCC(=O)N(C)/C=C1\Sc2ccccc2C1=O	-52	104
9	CCN1/C(=C/C=C2\SC(=S)N(C)C2=O)Oc2ccccc21	-50	162
10	CCCN1C(=O)/C(=C/C=C2/Oc3ccccc3N2CCC(=O)O)N(CCO)C1=S	/	-18*
11	CCOC(=O)c1c(NC(=O)CSc2nnc(CNC(=O)c3ccc(OC)c(OC)c3)n2C)sc2c1CCCC2	/	110
12	N#C/C(=C\c1ccc(N2CCCCC2)o1)C(N)=O	-217	197
13	CCOC(=O)/C(C#N)=C/c1ccc(N2CCCCC2)o1	-148	-74*
14	OCCCc1cn[nH]c1C(F)(F)F	-5	98
15	CN(C(=O)COc1ccc(-c2nn(C)c(=O)c3ccccc23)cc1)C1CCCCC1	1	99
16	O=C(O)C1CCCN1c1nc(-c2ccccc2)c2cc(Br)ccc2n1 (centres undefined)	-41	104
17	NC(=S)c1cc2ccccc2oc1=O	/	6.0*
18	NC(=S)c1cc2ccc(O)cc2oc1=O	-107	124
19	Ic1cccc(-c2nnc3ccc4ccccc4n23)c1	/	109
20	O=C(COc1ccc(F)cc1)Nc1nc(-c2ccccc2)ns1	-3	106

# Continuation:
nr	molecule	HCMV UL50-53 inh	GIV-Gai inh
21	CCCCC[C@H](O)/C=C/[C@H]1[C@H](O)CC(=O)[C@@H]1CC(=O)CCCCC(=O)O	0	/
22	COc1ccc(C2=NN(C(=O)CCCC(=O)O)C(c3ccccc3Cl)C2)cc1 (centres undefined)	-15	101
23	CCC(=O)Oc1ccc2cc(-c3nc4ccccc4n3C)c(=O)oc2c1	-19	/
24	CCN(CC)c1ccc2cc(-c3nc4ccccc4n3C)c(=O)oc2c1	-15	-24*
25	CCN(CC)c1ccc2cc(-c3nc4ccccc4s3)c(=O)oc2c1	3	250
26	CCN(CC)c1ccc2cc(-c3nc(-c4ccc(Cl)cc4Cl)cs3)c(=O)oc2c1	/	-69*
27	COc1ccc(Br)cc1/C=C1\N=C(c2cc(C)ccc2[N+](=O)[O-])OC1=O	-28	98
28	O=C(NC1CCCc2ccccc21)c1ccc(NC(=O)c2nsc3ccccc23)cc1 (centres undefined)	/	102
29	Cc1ccc(NC(=O)CSc2ncc3c(n2)-c2ccc(Cl)cc2N(C)S3(=O)=O)cc1F	/	103
30	CN1c2cc(Cl)ccc2-c2nc(SCC(=O)Nc3nccs3)ncc2S1(=O)=O	36*	107
31	CN1c2cc(Cl)ccc2-c2nc(SCC(=O)Nc3ccc(F)cc3F)ncc2S1(=O)=O	/	104
32	CN1c2cc(Cl)ccc2-c2nc(SCC(=O)Nc3cc(F)ccc3F)ncc2S1(=O)=O	78*	110
33	CC1CCN(c2ccc(N3CCC(C(=O)N4CCN(C5CCCCC5)CC4)CC3)nn2)CC1	-25	101
34	CCOCCCNc1ncnc2sccc12	24	/
35	COc1cc2c(C#N)c(N(C)CCc3ccc(OC)c(OC)c3)nc(N)c2c(N)n1	-11	/
36	COc1ccc(CCN(C)c2nc(N)c3c(N)nc(SCC(=O)O)cc3c2C#N)cc1OC	82*	/
37	COc1ccc(OC)c(NC(=O)c2cc(S(=O)(=O)N3CCN(c4cccc(C)c4C)CC3)ccc2F)c1	/	105
38	O=c1[nH]c2c(s1)C=Nc1cc3ccccc3cc1N2	-36	59*
39	Oc1ccc2ccccc2c1	-49	/
40	C[n+]1cccc2ccc(O)cc21	-53	-7.5*

# Compound profiles, from the list above. Values in the order: HCMV UL50-53 inh | GIV-Gai inh
# O=c1[nH]c2c(s1)C=Nc1cc3ccccc3cc1N2 in the list: -36 | 59*
# CN1c2cc(Cl)ccc2-c2nc(SCC(=O)Nc3nccs3)ncc2S1(=O)=O in the list: 36* | 107
# Oc1ccc2ccccc2c1 in the list: -49 | /
# Cc1ccc(NC(=O)CSc2ncc3c(n2)-c2ccc(Cl)cc2N(C)S3(=O)=O)cc1F in the list: / | 103
# CCC(=O)Oc1ccc2cc(-c3nc4ccccc4n3C)c(=O)oc2c1 in the list: -19 | /

# Next section.
nr	molecule	HCMV UL50-53 inh	GIV-Gai inh
41	COC(=O)c1ccc(-c2cnco2)cc1	-24	/
42	C=C1c2cccc(O)c2C(O)=C2C(=O)C3(O)C(O)=C(C(N)=O)C(=O)C(N(C)C)C3C(O)C12 (centres undefined)	104*	103
43	CN(C)C1C(=O)C(C(N)=O)=C(O)C2(O)C(=O)C3=C(O)c4c(O)ccc(Cl)c4C(O)C3CC12 (centres undefined)	-54	/
44	CCOc1ccccc1N(C)C(=O)c1cc(S(=O)(=O)NCCc2ccc(OC)c(OC)c2)ccc1F	/	111
45	Cc1cc(C)c2cc3c(cc2n1)CCN3CC(O)CO (centres undefined)	-53	-26*
46	CCCSc1nc2cc(C)c(C)cc2n1CC(O)CO (centres undefined)	-30	/
47	CNC(=O)CN1C(=O)c2cccnc2Oc2ccc(Cl)cc21	/	96
48	CN(C)/C=C1\SC(=S)N(c2ccc(Br)cc2)C1=O	-104	-65*
49	Cc1c(N2C(=O)/C(=C/c3ccc(Br)cc3)SC2=S)c(=O)n(-c2ccccc2)n1C	/	104
50	O=C(Nc1ccc(C(=O)Oc2ccccc2)cc1)c1ccc(Br)c(S(=O)(=O)N2CCCCC2)c1	/	102
51	CCOC(=O)c1c2c3c(cccc3[nH]c1=O)C(=O)c1ccccc1-2	-53	/
52	Cc1ccc2c3c(c(N)c(=O)[nH]c13)-c1ccccc1C2=O	/	76*
53	COc1ccc(/C=C2\SC(=O)N(CCNC(=O)CC(C)(C)C)C2=O)cc1	-72	/
54	O=C(Cc1ccc(Cl)c(Cl)c1)Nc1ccc2nc3n(c(=O)c2c1)CCCC3	8	105
55	O/N=C/c1c(O)ccc2ccccc12	-23	98
56	Oc1ccc2ccccc2c1/C=N/c1ncccn1	99*	/
57	O=CN/N=C/c1c(O)ccc2ccccc12	-17	/
58	O=c1oc2ccccc2c(O)c1/C=N/c1ncccn1	-18	/
59	Oc1ccc2ccccc2c1C=NCc1ccccc1	60*	103
60	CC(NC(=O)c1ccccc1N=Cc1c(O)ccc2ccccc12)c1ccccc1 (centres undefined)	68*!	/

# Next results
nr	molecule	HCMV UL50-53 inh	GIV-Gai inh
61	CC(C(=O)Nc1cccc(N=Cc2c(O)ccc3ccccc23)c1)c1ccccc1 (centres undefined)	-7	/
62	CN/N=C/c1c(O)ccc2ccccc12	49*	/
63	O=c1c2cc3c(cc2nc(SCc2nc(-c4ccccc4)no2)n1C1CCCC1)OCO3	/	103
64	N#CC1(C(=O)O)CCCC1	-20	/
65	O=S(=O)(/N=C\c1cc(Br)ccc1O)c1cccs1	3	/
66	O=S(=O)(/N=C/c1c(O)ccc2ccccc12)c1cccs1	98*	/
67	CCN(CC)c1ccc(C2Nc3ccc4ccccc4c3C3=C2C(=O)CC(C)(C)C3)c(OCc2ccc(Cl)cc2)c1 (centres undefined)	/	103
68	CN1/C(=C/C=C/c2oc3ccccc3[n+]2C)Oc2ccccc21	/	-5.9*
69	COc1ccccc1N(Cc1nc2nc(C)cc(=O)n2[nH]1)S(=O)(=O)c1ccccc1	-24	107
70	NNC(=O)COc1c(Br)cc(Br)c2cccnc12	-17	/
71	Nc1c(Br)cc(Br)c2cccnc12	58*	97
72	Cn1nc(-c2ccc(Cl)cc2)c2cc(C(=O)Nc3ccc(Br)cc3F)sc21	/	110
73	O=C(C1=C(O)C(=O)N(c2ccccn2)C1c1ccccc1)c1cccs1 (centres undefined)	-34	/
74	Cc1nnc(N2C(=O)C(O)=C(C(=O)c3cccs3)C2c2ccccc2F)s1 (centres undefined)	-61	-9.4*
75	CC(C)Cn1c(=S)[nH]c2scc(-c3cccs3)c2c1=O	-24	/
76	Cc1ccc(CSc2nc(-c3cccs3)ccc2C#N)cc1	-30	103
